{
  "source": "paper PMC10993414",
  "about": "“Water Quality Monitoring with the Multiplexed Assay MitoOxTox for Mitochondrial Toxicity, Oxidative Stress Response, and Cytotoxicity in AREc32 Cells” (Environmental Science & Technology, 2024)",
  "key": {"AREc32 cells": {"tested_on": "AREc32 cells", "settings": "human"}, "[1]": {"tested_on": "mitochondrial membrane potential (MMP) in AREc32 cells", "settings": "human"}},
  "data": [
    {"smiles": "N#Cc1cc(Br)c(O)c(Br)c1", "note": "[Bromoxynil]", "values": [
      {"measurement": "Cytotoxicity ImageExpress IC10", "setting": "AREc32 cells", "value": 187, "unit": "µM"},
      {"measurement": "Cytotoxicity ImageExpress log(IC10 (M))", "setting": "AREc32 cells", "value": -3.73, "unit": "M"},
      {"measurement": "SRcytotoxicity", "setting": "[1]", "value": 8.5}
    ]}
  ]
}
